Results: article PMC11931445, “A Novel Compound QO‐83 Alleviates Acute and Chronic Epileptic Seizures in Rodents by Modulating KV7 Channel Activity” (CNS Neuroscience & Therapeutics, 2025)

Chains of the proteins cited; added tags and fusions are not shown. Lines headed by an entry give the natural chain unless they say otherwise; changes in a name come on top.
UniProt Q9NR82, whole entry: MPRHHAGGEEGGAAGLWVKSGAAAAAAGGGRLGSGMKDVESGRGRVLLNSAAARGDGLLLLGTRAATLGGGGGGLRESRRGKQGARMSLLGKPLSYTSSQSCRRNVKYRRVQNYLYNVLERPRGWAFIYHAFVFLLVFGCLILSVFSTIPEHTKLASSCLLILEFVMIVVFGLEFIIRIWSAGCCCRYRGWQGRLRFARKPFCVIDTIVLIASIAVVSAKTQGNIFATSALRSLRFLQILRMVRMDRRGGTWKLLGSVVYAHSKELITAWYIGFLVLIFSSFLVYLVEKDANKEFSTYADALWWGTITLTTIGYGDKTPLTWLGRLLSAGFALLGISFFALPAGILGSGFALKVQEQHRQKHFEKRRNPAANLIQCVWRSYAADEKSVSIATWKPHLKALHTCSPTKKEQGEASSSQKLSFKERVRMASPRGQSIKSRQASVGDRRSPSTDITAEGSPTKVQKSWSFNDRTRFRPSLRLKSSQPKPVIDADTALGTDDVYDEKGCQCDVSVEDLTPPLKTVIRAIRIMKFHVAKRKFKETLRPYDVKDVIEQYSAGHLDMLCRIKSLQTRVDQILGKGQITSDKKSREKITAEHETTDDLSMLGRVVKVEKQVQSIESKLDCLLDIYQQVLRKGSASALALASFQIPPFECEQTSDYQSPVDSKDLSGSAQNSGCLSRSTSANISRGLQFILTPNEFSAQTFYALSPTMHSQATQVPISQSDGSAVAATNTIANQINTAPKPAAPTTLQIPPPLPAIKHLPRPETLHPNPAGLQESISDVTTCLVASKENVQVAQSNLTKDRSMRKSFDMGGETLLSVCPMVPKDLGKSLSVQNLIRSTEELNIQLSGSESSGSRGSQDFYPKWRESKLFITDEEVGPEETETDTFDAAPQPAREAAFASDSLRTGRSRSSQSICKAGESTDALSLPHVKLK
UniProt O43526, whole entry: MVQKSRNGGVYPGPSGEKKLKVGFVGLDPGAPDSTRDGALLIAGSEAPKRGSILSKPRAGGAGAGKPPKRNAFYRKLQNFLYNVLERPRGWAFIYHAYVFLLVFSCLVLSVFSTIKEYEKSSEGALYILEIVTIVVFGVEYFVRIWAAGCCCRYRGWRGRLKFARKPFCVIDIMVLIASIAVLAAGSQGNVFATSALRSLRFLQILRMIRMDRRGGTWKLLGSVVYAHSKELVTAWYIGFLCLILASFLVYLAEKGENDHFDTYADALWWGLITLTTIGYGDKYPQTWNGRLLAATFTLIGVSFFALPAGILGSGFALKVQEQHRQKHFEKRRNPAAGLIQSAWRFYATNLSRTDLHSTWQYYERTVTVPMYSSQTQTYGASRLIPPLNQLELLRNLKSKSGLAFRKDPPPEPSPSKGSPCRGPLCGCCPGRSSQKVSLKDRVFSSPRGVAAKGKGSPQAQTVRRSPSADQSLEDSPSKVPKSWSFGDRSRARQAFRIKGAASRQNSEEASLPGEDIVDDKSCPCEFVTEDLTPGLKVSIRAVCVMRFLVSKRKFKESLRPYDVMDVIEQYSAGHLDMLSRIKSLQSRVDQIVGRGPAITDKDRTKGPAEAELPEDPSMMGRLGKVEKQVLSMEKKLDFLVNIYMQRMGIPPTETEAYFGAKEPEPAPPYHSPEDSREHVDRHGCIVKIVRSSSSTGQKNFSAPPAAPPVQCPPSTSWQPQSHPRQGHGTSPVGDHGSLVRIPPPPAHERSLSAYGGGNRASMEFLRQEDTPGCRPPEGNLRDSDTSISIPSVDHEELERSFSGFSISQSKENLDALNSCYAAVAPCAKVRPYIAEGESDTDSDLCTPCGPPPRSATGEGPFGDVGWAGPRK
UniProt O43526, whole entry A306T: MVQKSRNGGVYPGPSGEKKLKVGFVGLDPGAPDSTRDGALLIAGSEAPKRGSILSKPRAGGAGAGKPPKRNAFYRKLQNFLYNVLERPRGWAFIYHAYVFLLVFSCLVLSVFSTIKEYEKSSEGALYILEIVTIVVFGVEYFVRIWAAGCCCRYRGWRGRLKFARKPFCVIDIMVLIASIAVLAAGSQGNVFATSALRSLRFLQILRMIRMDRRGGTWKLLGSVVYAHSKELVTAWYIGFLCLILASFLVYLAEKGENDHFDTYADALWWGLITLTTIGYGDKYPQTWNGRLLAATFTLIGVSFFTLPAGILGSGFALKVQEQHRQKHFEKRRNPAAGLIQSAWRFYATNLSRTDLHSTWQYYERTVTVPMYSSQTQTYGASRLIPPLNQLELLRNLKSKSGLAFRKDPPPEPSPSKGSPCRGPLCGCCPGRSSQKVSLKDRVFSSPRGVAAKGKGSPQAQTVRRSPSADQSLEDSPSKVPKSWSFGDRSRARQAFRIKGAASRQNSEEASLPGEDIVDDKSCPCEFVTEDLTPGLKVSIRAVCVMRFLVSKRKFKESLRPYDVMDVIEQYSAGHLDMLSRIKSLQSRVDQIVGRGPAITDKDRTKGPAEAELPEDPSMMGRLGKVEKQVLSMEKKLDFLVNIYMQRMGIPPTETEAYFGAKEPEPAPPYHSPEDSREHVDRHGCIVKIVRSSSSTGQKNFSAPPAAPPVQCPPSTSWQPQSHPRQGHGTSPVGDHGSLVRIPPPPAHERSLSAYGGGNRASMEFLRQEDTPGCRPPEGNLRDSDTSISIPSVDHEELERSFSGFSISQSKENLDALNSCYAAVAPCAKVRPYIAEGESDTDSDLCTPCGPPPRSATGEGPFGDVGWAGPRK
UniProt O43526, whole entry F104A: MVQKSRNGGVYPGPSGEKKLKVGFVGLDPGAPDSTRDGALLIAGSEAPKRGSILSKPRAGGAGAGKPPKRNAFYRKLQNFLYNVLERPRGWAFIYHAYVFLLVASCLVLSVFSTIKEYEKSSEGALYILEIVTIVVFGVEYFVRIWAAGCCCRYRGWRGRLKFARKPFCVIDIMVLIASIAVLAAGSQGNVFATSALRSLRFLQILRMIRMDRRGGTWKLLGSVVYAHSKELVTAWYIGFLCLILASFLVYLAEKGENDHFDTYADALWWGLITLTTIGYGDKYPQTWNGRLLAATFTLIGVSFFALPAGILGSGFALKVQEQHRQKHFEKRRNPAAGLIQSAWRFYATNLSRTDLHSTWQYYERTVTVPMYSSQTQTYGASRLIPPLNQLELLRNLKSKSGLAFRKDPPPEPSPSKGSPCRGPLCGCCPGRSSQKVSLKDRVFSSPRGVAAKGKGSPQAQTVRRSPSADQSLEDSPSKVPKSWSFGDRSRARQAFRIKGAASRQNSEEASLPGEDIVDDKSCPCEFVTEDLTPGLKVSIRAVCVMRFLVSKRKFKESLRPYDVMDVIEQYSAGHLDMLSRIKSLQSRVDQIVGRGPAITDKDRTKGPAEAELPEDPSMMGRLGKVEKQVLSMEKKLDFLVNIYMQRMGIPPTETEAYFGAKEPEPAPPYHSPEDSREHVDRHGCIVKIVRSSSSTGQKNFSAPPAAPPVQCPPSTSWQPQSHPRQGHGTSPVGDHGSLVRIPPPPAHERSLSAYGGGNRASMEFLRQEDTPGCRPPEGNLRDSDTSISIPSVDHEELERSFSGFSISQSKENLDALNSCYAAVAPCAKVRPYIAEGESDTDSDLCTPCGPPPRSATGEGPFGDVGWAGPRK
UniProt O43526, whole entry Y284C: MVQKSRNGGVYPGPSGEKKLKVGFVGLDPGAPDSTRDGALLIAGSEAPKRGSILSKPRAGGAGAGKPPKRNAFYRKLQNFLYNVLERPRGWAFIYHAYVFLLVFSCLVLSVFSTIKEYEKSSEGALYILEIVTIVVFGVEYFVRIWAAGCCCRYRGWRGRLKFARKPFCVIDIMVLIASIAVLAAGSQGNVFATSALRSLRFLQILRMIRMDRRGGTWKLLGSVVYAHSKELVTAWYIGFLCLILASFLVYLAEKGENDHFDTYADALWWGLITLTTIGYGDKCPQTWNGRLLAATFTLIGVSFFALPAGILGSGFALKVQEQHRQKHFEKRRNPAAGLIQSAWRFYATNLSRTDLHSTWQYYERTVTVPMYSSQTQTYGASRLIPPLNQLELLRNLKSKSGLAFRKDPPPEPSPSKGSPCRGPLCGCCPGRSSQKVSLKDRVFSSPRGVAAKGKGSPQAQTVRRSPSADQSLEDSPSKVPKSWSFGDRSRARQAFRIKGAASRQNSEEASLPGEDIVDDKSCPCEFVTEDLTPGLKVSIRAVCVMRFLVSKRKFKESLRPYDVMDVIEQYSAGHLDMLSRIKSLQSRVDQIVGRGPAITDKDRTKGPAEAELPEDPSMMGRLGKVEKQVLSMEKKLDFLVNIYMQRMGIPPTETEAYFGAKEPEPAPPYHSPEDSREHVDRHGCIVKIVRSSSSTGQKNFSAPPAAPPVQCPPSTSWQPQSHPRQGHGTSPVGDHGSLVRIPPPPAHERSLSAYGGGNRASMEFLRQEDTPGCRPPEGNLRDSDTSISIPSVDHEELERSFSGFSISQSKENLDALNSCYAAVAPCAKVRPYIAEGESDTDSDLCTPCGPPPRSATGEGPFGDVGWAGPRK
UniProt O43526, whole entry W236L: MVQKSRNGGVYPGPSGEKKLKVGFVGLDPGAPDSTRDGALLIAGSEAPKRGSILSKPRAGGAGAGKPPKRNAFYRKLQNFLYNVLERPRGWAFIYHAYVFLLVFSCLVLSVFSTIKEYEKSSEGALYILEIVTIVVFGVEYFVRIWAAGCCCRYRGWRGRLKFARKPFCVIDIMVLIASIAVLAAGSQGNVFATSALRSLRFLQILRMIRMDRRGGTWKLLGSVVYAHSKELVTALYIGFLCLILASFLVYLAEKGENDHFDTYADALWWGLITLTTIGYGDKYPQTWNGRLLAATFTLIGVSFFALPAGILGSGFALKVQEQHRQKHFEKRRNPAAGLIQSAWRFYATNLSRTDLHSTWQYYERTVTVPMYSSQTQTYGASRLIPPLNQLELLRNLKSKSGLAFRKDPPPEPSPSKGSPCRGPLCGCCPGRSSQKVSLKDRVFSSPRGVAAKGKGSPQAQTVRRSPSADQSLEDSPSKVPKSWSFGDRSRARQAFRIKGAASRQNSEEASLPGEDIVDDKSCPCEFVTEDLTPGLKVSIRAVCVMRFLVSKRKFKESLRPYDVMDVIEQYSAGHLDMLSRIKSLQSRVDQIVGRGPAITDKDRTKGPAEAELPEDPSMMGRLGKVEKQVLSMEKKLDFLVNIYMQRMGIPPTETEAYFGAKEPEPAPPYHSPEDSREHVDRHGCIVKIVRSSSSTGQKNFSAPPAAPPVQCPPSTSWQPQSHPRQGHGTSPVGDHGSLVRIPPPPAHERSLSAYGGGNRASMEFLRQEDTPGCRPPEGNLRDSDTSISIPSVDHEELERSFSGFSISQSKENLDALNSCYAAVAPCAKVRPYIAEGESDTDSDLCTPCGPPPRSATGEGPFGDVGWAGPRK
UniProt P56696, whole entry: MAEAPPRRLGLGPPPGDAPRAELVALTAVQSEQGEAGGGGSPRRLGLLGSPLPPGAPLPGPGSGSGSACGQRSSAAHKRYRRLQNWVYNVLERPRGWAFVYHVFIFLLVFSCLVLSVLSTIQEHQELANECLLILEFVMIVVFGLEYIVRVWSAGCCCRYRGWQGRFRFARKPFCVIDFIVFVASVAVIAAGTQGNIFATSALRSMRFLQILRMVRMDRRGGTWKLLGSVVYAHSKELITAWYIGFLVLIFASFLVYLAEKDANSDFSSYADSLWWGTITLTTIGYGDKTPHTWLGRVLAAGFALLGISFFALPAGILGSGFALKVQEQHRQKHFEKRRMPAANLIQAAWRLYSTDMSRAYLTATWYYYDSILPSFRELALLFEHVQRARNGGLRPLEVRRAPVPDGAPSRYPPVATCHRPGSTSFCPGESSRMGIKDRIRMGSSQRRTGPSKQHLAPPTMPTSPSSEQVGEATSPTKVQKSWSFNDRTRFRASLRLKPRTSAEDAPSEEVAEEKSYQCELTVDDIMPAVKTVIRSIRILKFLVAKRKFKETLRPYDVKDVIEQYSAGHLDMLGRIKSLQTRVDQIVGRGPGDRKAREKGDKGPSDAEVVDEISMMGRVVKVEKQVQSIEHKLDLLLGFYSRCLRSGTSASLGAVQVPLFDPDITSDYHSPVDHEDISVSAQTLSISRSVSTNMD

Columns and labels:
KV7.3 = KV7.3 (Homo sapiens, UniProt O43525); experiment: Manual patch clamp, KV7 currents; conditions: for EC50: Hill fitting
KV7.5 = KV7.5 (Homo sapiens, UniProt Q9NR82); experiment: Manual patch clamp, KV7 currents; conditions: for EC50: Hill fitting
KV7.2 = KV7.2 (Homo sapiens, UniProt O43526); experiment: Manual patch clamp, KV7 currents; conditions: for EC50: Hill fitting
KV7.2/7.3 = KV7.2/7.3 (Homo sapiens, UniProt O43525+O43526); experiment: Manual patch clamp, KV7 currents; conditions: for EC50: Hill fitting
KV7.4 [1] = molecular target: T1, KV7.4 (Homo sapiens, UniProt P56696); experiment: Manual patch clamp, KV7 currents; conditions: for EC50: Hill fitting
[2] = test system: M‐current in mPFC neurons; experiment: M current recording in brain slices
KV7.4 [3] = molecular target: T1, KV7.4; experiment: Rb+ efflux high-throughput screening (ICR 8000); format: cell-based; conditions: read-out: EC50 for activation of KV7.4 channels, stably expressed in HEK293 cells
[4] = HPLC-MS/MS tissue distribution (blood-brain barrier permeability); conditions: for brain tissue content / plasma drug content: Mean ± SD
KV7.2^W236L = KV7.2^W236L (Homo sapiens, UniProt O43526, W236L); experiment: Patch clamp on KV7.2 binding site mutant; conditions: 10 µM
KV7.2^F104A = KV7.2^F104A (Homo sapiens, UniProt O43526, F104A); experiment: Patch clamp on KV7.2 binding site mutant; conditions: 10 µM
electroshock seizures = experiment: Maximal electroshock seizure (MES) model
PTZ-induced seizures = experiment: Metrazol maximal seizure (MMS) model; conditions: for seizure latency: model 6.92 ± 1.67 min
L02 cells = experiment: MTT cytotoxicity; conditions: 0.1-100 μM; 24h and 48h
KV7.2^A306T = KV7.2^A306T (Homo sapiens, UniProt O43526, A306T); experiment: Patch clamp on KV7.2 epilepsy mutant; conditions: 10 µM
KV7.2^Y284C = KV7.2^Y284C (Homo sapiens, UniProt O43526, Y284C); experiment: Patch clamp on KV7.2 epilepsy mutant; conditions: 10 µM
PNC-induced seizures = experiment: Penicillin (PNC) induced acute epilepsy model; conditions: for seizure latency: model 10.63 ± 2.39 min
[5] = test system: mPFC and hippocampal pyramidal neurons; experiment: Action potential recordings in Mg2+-free brain slices; format: cell-based, Sprague–Dawley (SD) rats; conditions: for effect on AP firing: Mg2+-free slices
[6] = test system: hippocampal pyramidal neurons; experiment: sEPSC/sIPSC recordings in Mg2+-free brain slices; format: cell-based, Sprague–Dawley (SD) rats
PTZ kindling seizures = experiment: Chronic PTZ-induced epileptic kindling model; format: in vivo, Wistar Institute rats
[7] = test system: pilocarpine-induced seizures; experiment: Pilocarpine-induced status epilepticus model with EEG; format: in vivo, Sprague–Dawley (SD) rats
[8] = 15 minutes after intragastric 10 mg/kg
[9] = 1 hour after intragastric 10 mg/kg

activation curve V1/2 (KV7.3; KV7.3, 0.01 μM): -27.52 ± 1.41 mV
activation curve V1/2 (KV7.3; KV7.3, 0.05 μM): -29.39 ± 1.57 mV
activation curve V1/2 (KV7.3; KV7.3, 0.10 μM): -30.92 ± 1.23 mV
activation curve V1/2 (KV7.3; KV7.3, 0.50 μM): -28.78 ± 1.67 mV
activation curve V1/2 (KV7.3; KV7.3, 5.00 μM): -56.12 ± 1.01 mV
shift of activation V1/2 (KV7.3; KV7.3, 10 μM): −37.67 mV
activation curve V1/2 (KV7.3; KV7.3, 10.00 μM): -62.91 ± 1.18 mV
Activation τ (10 mV) (KV7.3; KV7.3, 10 μM, Mean ± SE): 221.50 ± 32.08 ms
Deactivation τ (-120 mV) (KV7.3; KV7.3, 10 μM, Mean ± SE): 125.31 ± 15.77 ms
EC50 (KV7.3; read-out: EC50 for opening KV7.3, manual patch clamp): 220 nM
EC50 (KV7.3; read-out: EC50 of ΔV1/2, KV7.3, activation shift): 820 nM
activation curve V1/2 (KV7.5; KV7.5, 0.01 μM): -40.14 ± 1.96 mV
activation curve V1/2 (KV7.5; KV7.5, 0.05 μM): -37.74 ± 1.98 mV
activation curve V1/2 (KV7.5; KV7.5, 0.10 μM): -44.84 ± 2.17 mV
activation curve V1/2 (KV7.5; KV7.5, 0.50 μM): -44.43 ± 3.78 mV
activation curve V1/2 (KV7.5; KV7.5, 1.00 μM): -58.71 ± 2.45 mV
activation curve V1/2 (KV7.5; KV7.5, 5.00 μM): -61.54 ± 2.70 mV
shift of activation V1/2 (KV7.5; KV7.5, 10 μM): −26.28 mV
activation curve V1/2 (KV7.5; KV7.5, 10.00 μM): -65.46 ± 2.19 mV
Activation τ (10 mV) (KV7.5; KV7.5, 10 μM, Mean ± SE): 181.42 ± 22.22 ms
Deactivation τ (-120 mV) (KV7.5; KV7.5, 10 μM, Mean ± SE): 95.34 ± 8.82 ms
EC50 (KV7.5; read-out: EC50 for opening KV7.5, manual patch clamp): 590 nM
EC50 (KV7.5; read-out: EC50 of ΔV1/2, KV7.5, activation shift): 740 nM
activation curve V1/2 (KV7.2; KV7.2, 0.01 μM): -20.30 ± 1.48 mV
activation curve V1/2 (KV7.2; KV7.2, 0.05 μM): -21.38 ± 1.03 mV
activation curve V1/2 (KV7.2; KV7.2, 0.10 μM): -29.20 ± 1.24 mV
activation curve V1/2 (KV7.2; KV7.2, 0.50 μM): -39.26 ± 1.00 mV
activation curve V1/2 (KV7.2; KV7.2, 1.00 μM): -34.18 ± 1.18 mV
activation curve V1/2 (KV7.2; KV7.2, 5.00 μM): -38.46 ± 1.19 mV
activation curve V1/2 (KV7.2; KV7.2, 10.00 μM): -45.37 ± 1.26 mV
Activation τ (10 mV) (KV7.2; KV7.2, 10 μM, Mean ± SE): 201.23 ± 62.21 ms
Deactivation τ (-120 mV) (KV7.2; KV7.2, 10 μM, Mean ± SE): 115.04 ± 18.26 ms
EC50 (KV7.2; read-out: EC50 for opening KV7.2, manual patch clamp): 560 nM
EC50 (KV7.2; read-out: EC50 of ΔV1/2, KV7.2, activation shift): 250 nM
activation curve V1/2 (KV7.2/7.3; KV7.2/7.3, 0.01 μM): -13.15 ± 1.63 mV
activation curve V1/2 (KV7.2/7.3; KV7.2/7.3, 0.05 μM): -13.35 ± 2.97 mV
activation curve V1/2 (KV7.2/7.3; KV7.2/7.3, 0.10 μM): -13.29 ± 2.95 mV
activation curve V1/2 (KV7.2/7.3; KV7.2/7.3, 0.50 μM): -17.90 ± 1.63 mV
activation curve V1/2 (KV7.2/7.3; KV7.2/7.3, 1.00 μM): -25.70 ± 1.50 mV
activation curve V1/2 (KV7.2/7.3; KV7.2/7.3, 5.00 μM): -36.05 ± 1.83 mV
shift of activation V1/2 (KV7.2/7.3; KV7.2/7.3, 10 μM): −27.79 mV
activation curve V1/2 (KV7.2/7.3; KV7.2/7.3, 10.00 μM): -41.05 ± 3.24 mV
Activation τ (10 mV) (KV7.2/7.3; KV7.2/7.3, 10 μM, Mean ± SE): 190.06 ± 32.38 ms
Deactivation τ (-120 mV) (KV7.2/7.3; KV7.2/7.3, 10 μM, Mean ± SE): 173.70 ± 40.16 ms
EC50 (KV7.2/7.3; read-out: EC50 for opening KV7.2/7.3, manual patch clamp): 70 nM
EC50 (KV7.2/7.3; read-out: EC50 of ΔV1/2, KV7.2/7.3, activation shift): 1000 nM
activation curve V1/2 (KV7.4 [1]; KV7.4, 0.01 μM): -23.98 ± 1.51 mV
activation curve V1/2 (KV7.4 [1]; KV7.4, 0.05 μM): -24.11 ± 1.51 mV
activation curve V1/2 (KV7.4 [1]; KV7.4, 0.10 μM): -25.55 ± 2.24 mV
activation curve V1/2 (KV7.4 [1]; KV7.4, 0.50 μM): -27.22 ± 2.43 mV
activation curve V1/2 (KV7.4 [1]; KV7.4, 1.00 μM): -35.87 ± 1.99 mV
activation curve V1/2 (KV7.4 [1]; KV7.4, 5.00 μM): -35.78 ± 2.41 mV
shift of activation V1/2 (KV7.4 [1]; KV7.4, 10 μM): −10.01 mV
activation curve V1/2 (KV7.4 [1]; KV7.4, 10.00 μM): -32.52 ± 2.52 mV
Activation τ (10 mV) (KV7.4 [1]; KV7.4, 10 μM, Mean ± SE): 227.33 ± 52.03 ms
Deactivation τ (-120 mV) (KV7.4 [1]; KV7.4, 10 μM, Mean ± SE): 72.08 ± 6.24 ms
EC50 (KV7.4 [1]; read-out: EC50 for opening KV7.4, manual patch clamp): 670 nM
EC50 (KV7.4 [1]; read-out: EC50 of ΔV1/2, KV7.4, activation shift): 520 nM
EC50 (KV7.4 [3]): 840 nM
brain-to-plasma concentration ratio [4, 8]: 343.67%
brain tissue content [4, 8]: 94.58 ± 26.48 ng/g
plasma drug content [4, 8]: 27.52 ± 25.46 ng/g
brain-to-plasma concentration ratio [4, 9]: 168.73%
brain tissue content [4, 9]: 172.25 ± 75.13 ng/g
plasma drug content [4, 9]: 102.11 ± 96.64 ng/g
V1/2 of activation (KV7.2^W236L; control -18.91 ± 3.20 mV): -19.33 ± 2.09 mV
hyperpolarizing shift of V1/2 (KV7.2^F104A): 8.55 mV
effect on current density (KV7.2^F104A; 0 mV, 1000 ms stimulation): did not have a significant effect
V1/2 of activation (KV7.2^F104A; control -17.06 ± 1.27 mV): -25.61 ± 1.08 mV
hyperpolarizing shift of V1/2 (KV7.2^A306T): 16.86 mV
V1/2 of activation (KV7.2^A306T; control -27.58 ± 1.23 mV): -44.44 ± 0.90 mV
hyperpolarizing shift of V1/2 (KV7.2^Y284C): 9.58 mV
effect on current density (KV7.2^Y284C; 0 mV, 1000 ms stimulation): still increased the current density
V1/2 of activation (KV7.2^Y284C; control -18.46 ± 3.20 mV): -28.04 ± 2.81 mV
Structure (SMILES): Nc1c(NC(=O)CCC2CCCC2)ccc(NCc2ccc(C(F)(F)F)cc2)c1F
effect on KV7.2 channel current (KV7.2; 1 μM QO-83 co-applied with 20 μM XE991): did not further increase the KV7.2 channel current
effect on KV7.2 channel current (KV7.2; QO-83 alone): significantly increased the KV7.2 channel current
effect on M-current ([2]; 1 μM QO-83 + 20 μM XE991 after XE991 perfusion): failed to further enhance
effect on M-current ([2]; mPFC neurons, QO-83 alone): significantly opened
effect on current density (KV7.2^W236L; 0 mV, 1000 ms stimulation): no significant effect on the current density
electroshock protection rate (electroshock seizures; 1 mg/kg i.p.): 10%
electroshock protection rate (electroshock seizures; 1.5 mg/kg i.p.): 50%
electroshock protection rate (electroshock seizures; 2 mg/kg i.p.): 60%
electroshock protection rate (electroshock seizures; 2.5 mg/kg i.p.): 80%
electroshock protection rate (electroshock seizures; 3 mg/kg i.p.): 100%
ED50 (anticonvulsant protection, MES) (electroshock seizures; i.p., fitted to a logistic function): 2.27 ± 1.29 mg/kg
seizure protection rate (PTZ-induced seizures; 1 mg/kg): 25%
seizure latency (PTZ-induced seizures; 1.0 mg/kg i.p.): 14.45 ± 2.54 min
seizure protection rate (PTZ-induced seizures; 3 mg/kg): 45%
seizure latency (PTZ-induced seizures; 3.0 mg/kg i.p.): 19.43 ± 2.42 min
effect on cell viability (MTT) (L02 cells): no significant impact on cell viability
effect on current density (KV7.2^A306T; 0 mV, 1000 ms stimulation): significantly increased the current density
seizure grade (PNC-induced seizures; 5 mg/kg oral): 3.33 ± 0.42
seizure latency (PNC-induced seizures; 5 mg/kg oral): 35.00 ± 4.61 min
seizure grade (PNC-induced seizures; 10 mg/kg oral): 3.12 ± 0.47
seizure latency (PNC-induced seizures; 10 mg/kg oral): 36.25 ± 6.29 min
effect on AP firing ([5]; 1 μM): significantly reduced AP firing
effect on AP firing ([5]; 10 μM): significantly inhibited AP firing
effect on AHP ([5]; 180 pA current stimulation): significantly shifted the AHP
effect on RMP ([5]; 180 pA current stimulation): significantly decreasing the RMP
effect on rheobase and threshold ([5]; 180 pA current stimulation): significantly increased the rheobase and threshold
sIPSC amplitude ([6]; Mg2+-free group 30.08 ± 3.02 pA, 1 μM): 81.15 ± 7.57 pA
sEPSC amplitude ([6]; Mg2+-free group 74.06 ± 8.08 pA, 1 μM): 23.20 ± 2.11 pA
effect on sEPSC frequency ([6]; Mg2+-free slices): Without affecting
effect on sIPSC frequency ([6]; Mg2+-free slices): no effects
effect on latency period (PTZ kindling seizures; 1 mg/kg): significantly prolong the latency period
seizure grade (PTZ kindling seizures; 1 mg/kg i.p. daily, 30th day, model 4.68 ± 0.62): 2.12 ± 0.22
seizure latency ([7]; 1 mg/kg QO-83 co-administered with (after) 2 mg/kg XE991, Pilo model 22.73 ± 6.03 min): 14.01 ± 7.10 min
seizure grade versus model group ([7]; 1 mg/kg QO-83 with 2 mg/kg XE991): No significant differences
seizure grade (Racine) ([7]; 1 mg/kg i.p., Pilo model 4.70 ± 0.12): 2.33 ± 0.24
latency of seizures (first grade III seizure) ([7]; 1 mg/kg i.p., Pilo model 21.64 ± 8.89 min): 56.79 ± 26.29 min
effect on EEG power spectral density ([7]; 1 mg/kg i.p., pilocarpine-treated rats): significantly inhibited the increase in EEG power spectral density

Read-outs that look alike come from different tables or passages of the source.
